Data from patent US9650334B2 (AbbVie Deutschland GmbH & Co. KG, priority 2013, dated 2017).

Target: T1, human GlyT1c transporter (Homo sapiens, UniProt P48067)
T1 sequence (P48067 1-706): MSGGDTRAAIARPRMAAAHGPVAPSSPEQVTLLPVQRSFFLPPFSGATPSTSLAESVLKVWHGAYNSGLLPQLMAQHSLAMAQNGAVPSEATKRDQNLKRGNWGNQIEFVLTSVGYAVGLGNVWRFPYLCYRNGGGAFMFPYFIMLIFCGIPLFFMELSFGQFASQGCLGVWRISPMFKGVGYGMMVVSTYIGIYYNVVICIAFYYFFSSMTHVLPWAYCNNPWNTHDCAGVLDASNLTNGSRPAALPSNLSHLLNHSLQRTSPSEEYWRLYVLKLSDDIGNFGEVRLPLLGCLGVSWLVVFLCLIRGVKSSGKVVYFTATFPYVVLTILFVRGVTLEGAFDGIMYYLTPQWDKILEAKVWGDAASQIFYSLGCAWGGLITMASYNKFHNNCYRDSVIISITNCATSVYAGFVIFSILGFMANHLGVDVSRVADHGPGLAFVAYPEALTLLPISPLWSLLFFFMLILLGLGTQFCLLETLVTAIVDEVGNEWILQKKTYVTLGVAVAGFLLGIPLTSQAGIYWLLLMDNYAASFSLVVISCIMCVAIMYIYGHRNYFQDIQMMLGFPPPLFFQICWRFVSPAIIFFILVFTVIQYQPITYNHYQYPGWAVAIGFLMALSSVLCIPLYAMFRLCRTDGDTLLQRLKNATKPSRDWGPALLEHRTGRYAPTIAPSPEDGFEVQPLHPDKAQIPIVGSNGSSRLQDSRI
Assay: Radioligand binding assays using recombinant CHO cell membranes expressing human GlyT1
Settings: radioligand binding to human GlyT1c transporter-expressing CHO cell membranes

In the case of Cn1cnc(S(=O)(=O)N2C[C@@H](Nc3ccc(C#N)c(Cl)c3)[C@H](c3ccc(F)cc3)C2)c1 (relative stereo) [Example 341, 2-chloro-4-({trans-4-(4-fluorophenyl)-1-[(1-methyl-1H-imidazol-4-yl)sulfonyl]pyrrolidin-3-yl}amino)benzonitrile], the Ki is reported as no more than 10 µM.
